According to paper PMC4192597, “Antimicrobials, Stress and Mutagenesis” (PLoS Pathogens, 2014):
In brackets after ≈: the same amount, converted by molar mass.

System: E. coli MG1655
Settings: micro-dilution, inoculum 2×10^8 cfu/ml, 24 h, liquid MH medium, 37°C
Experimental: E. coli K-12 MG1655 was used for all experiments, grown in liquid Mueller-Hilton (MH) agar or agarose, unless otherwise indicated. All experiments were carried out at 37°C.
MICs were determined according to CLSI recommendations by a micro-dilution method with the exception that the inoculum size that was adjusted to 2×10^8 cfu/ml from a regrowth of overnight cultures to be consistent with the mutagenesis experiments. […] Polypropylene non-binding plates (Th. Geyer, Germany) were used for all experiments.

CC[C@H](C)[C@H](NC(=O)CN)C(=O)NCC(=O)N[C@@H](C)C(=O)N[C@H](C(=O)N[C@@H](CC(C)C)C(=O)N[C@@H](CCCCN)C(=O)N[C@H](C(=O)N[C@@H](CC(C)C)C(=O)N[C@H](C(=O)N[C@H](C(=O)NCC(=O)N[C@@H](CC(C)C)C(=O)N1CCC[C@H]1C(=O)N[C@@H](C)C(=O)N[C@@H](CC(C)C)C(=O)N[C@H](C(=O)N[C@@H](CO)C(=O)N[C@@H](Cc1c[nH]c2ccccc12)C(=O)N[C@H](C(=O)N[C@@H](CCCCN)C(=O)N[C@@H](CCCNC(=N)N)C(=O)N[C@@H](CCCCN)C(=O)N[C@@H](CCCNC(=N)N)C(=O)N[C@@H](CCC(N)=O)C(=O)N[C@@H](CCC(N)=O)C(N)=O)[C@@H](C)CC)[C@@H](C)CC)[C@@H](C)O)[C@@H](C)O)C(C)C)C(C)C [Melittin] showed an MIC of 2 µg/mL (≈ 0.703 µM).
